The experiment deals with T1, TaqDarG (Thermus aquaticus, UniProt P0DV57).
T1 construct: gene darG
Description: release from ADP-ribosylated oligonucleotide, autoradiography of TLC. The note with it: ADP-ribosylated ssDNA oligonucleotide as substrate; labelled compound; 37 C, 15 min.

By UniProt entry, the sequences of proteins in these tests, tags left out. Where a name states a change or a piece, a line headed by the entry shows the natural chain unless it says otherwise.
UniProt P0DV57: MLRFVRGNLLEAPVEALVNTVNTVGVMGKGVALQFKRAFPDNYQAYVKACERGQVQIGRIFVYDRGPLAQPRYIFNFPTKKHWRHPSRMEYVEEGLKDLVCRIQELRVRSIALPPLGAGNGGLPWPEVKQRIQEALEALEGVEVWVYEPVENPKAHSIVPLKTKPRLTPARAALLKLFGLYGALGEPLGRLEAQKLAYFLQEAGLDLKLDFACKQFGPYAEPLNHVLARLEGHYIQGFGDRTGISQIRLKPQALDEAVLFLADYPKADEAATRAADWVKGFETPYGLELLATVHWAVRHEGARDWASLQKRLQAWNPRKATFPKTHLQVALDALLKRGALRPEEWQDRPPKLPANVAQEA

As for `Nc1ncnc2c1ncn2[C@@H]1O[C@H](COP(=O)(O)OP(=O)(O)OC[C@H]2OC(O)[C@H](O)[C@@H]2O)[C@@H](O)[C@H]1O` (stereo partly shown) [ADPr], the “release from ADP-ribosylated oligonucleotide, autoradiography of TLC” value was “loss of modification (Figures 3A, top, and S3A) and the release of free ADPr”.

The values above are taken from paper PMC5179494 (Molecular Cell, 2016).
